Reference: US7265102B2 (priority 2000, dated 2007)

Amino acid sequences for entries named in this document (tags omitted). Residues count along the entry.
UniProt P25774, 115-331: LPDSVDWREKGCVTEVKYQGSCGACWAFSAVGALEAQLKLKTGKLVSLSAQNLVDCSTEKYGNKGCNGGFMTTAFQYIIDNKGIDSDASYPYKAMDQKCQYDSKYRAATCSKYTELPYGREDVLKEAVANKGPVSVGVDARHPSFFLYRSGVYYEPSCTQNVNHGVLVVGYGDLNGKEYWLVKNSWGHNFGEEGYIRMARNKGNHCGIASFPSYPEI

The compounds below were run against Recombinant human cathepsin S (CatS) (Homo sapiens, UniProt P25774) (assay: biochemical).
CC(=O)N1CCc2c(c(-c3ccc(Br)cc3)nn2CC(O)CN2CCC(c3cn(CCN4CCOCC4)c4cc(Cl)ccc34)CC2)C1 (stereo not drawn) [Example 110, 1-[3-(4-Bromo-phenyl)-1-(3-{4-[6-chloro-1-(2-morpholin-4-yl-ethyl)-1H-indol-3-yl]-piperidin-1-yl}-2-hydroxy-propyl)-1,4,6,7-tetrahydro-pyrazolo[4,3-c]pyridin-5-yl]-ethanone] gave an IC50 of 140 nM. CS(=O)(=O)N1CCc2c(c(-c3ccc(C(F)(F)F)cc3)nn2CC(O)CN2CCC(c3c[nH]c4c3ccc[n+]4[O-])CC2)C1 (stereo not drawn) [Example 121, 1-[5-Methanesulfonyl-3-(4-trifluoromethyl-phenyl)-4,5,6,7-tetrahydro-pyrazolo[4,3-c]pyridin-1-yl]-3-[4-(7-oxy-1H-pyrrolo[2,3-b]pyridin-3-yl)-piperidin-1-yl]-propan-2-ol] showed an IC50 of 310 nM. CS(=O)(=O)N1CCc2c(c(-c3ccc(Br)cc3)nn2CC(O)CN2CCC(c3c[nH]c4ccncc34)CC2)C1 (stereo not drawn) [Example 124, 1-[3-(4-Bromo-phenyl)-5-methanesulfonyl-4,5,6,7-tetrahydro-pyrazolo[4,3-c]pyridin-1-yl]-3-[4-(1H-pyrrolo[3,2-c]pyridin-3-yl)-piperidin-1-yl]-propan-2-ol] gave an IC50 of 130 nM. CS(=O)(=O)N1CCc2c(c(-c3ccc(C(F)(F)F)cc3)nn2CC(O)CN2CCC(c3c[nH]c4nc(N5CCOCC5)ccc34)CC2)C1 (stereo not drawn) [Example 122, 1-[5-Methanesulfonyl-3-(4-trifluoromethyl-phenyl)-4,5,6,7-tetrahydro-pyrazolo[4,3-c]pyridin-1-yl]-3-[4-(6-morpholin-4-yl-1H-pyrrolo[2,3-b]pyridin-3-yl)-piperidin-1-yl]-propan-2-ol] showed an IC50 of 190 nM. In the case of COC(=O)n1cc(C2CCN(CC(O)Cn3nc(-c4ccc(C(F)(F)F)cc4)c4c3CCN(S(C)(=O)=O)C4)CC2)c2c[n+]([O-])ccc21 (stereo not drawn) [Example 126, 3-(1-{2-Hydroxy-3-[5-methanesulfonyl-3-(4-trifluoromethyl-phenyl)-4,5,6,7-tetrahydro-pyrazolo[4,3-c]pyridin-1-yl]-propyl}-piperidin-4-yl)-5-oxy-pyrrolo[3,2-c]pyridine-1-carboxylic acid methyl ester], the IC50 is reported as 250 nM. CC(=O)N1CCc2c(c(-c3ccc(C(F)(F)F)cc3)nn2CC(O)CN2CCC(c3cn(CCN4CCOCC4)c4ncccc34)CC2)C1 (stereo not drawn) [Example 114, 1-[1-(2-Hydroxy-3-{4-[1-(2-morpholin-4-yl-ethyl)-1H-pyrrolo[2,3-b]pyridin-3-yl]-piperidin-1-yl}-propyl)-3-(4-trifluoromethyl-phenyl)-1,4,6,7-tetrahydro-pyrazolo[4,3-c]pyridin-5-yl]-ethanone] showed an IC50 of 110 nM. For Cn1cc(C2CCN(CC(O)Cn3nc(-c4ccc(C(F)(F)F)cc4)c4c3CCN(S(C)(=O)=O)C4)CC2)c2ccc(Cl)cc21 (stereo not drawn) [Example 105, 1-[4-(6-Chloro-1-methyl-1H-indol-3-yl)-piperidin-1-yl]-3-[5-methanesulfonyl-3-(4-trifluoromethyl-phenyl)-4,5,6,7-tetrahydro-pyrazolo[4,3-c]pyridin-1-yl]-propan-2-ol], the IC50 was 630 nM. For CC(=O)N1CCc2c(c(-c3ccc(C(F)(F)F)cc3)nn2CC(O)CN2CCC(c3c[nH]c4ccc(Cl)cc34)CC2)C1 (stereo not drawn) [Example 102, 1-[1-{3-[4-(5-Chloro-1H-indol-3-yl)-piperidin-1-yl]-2-hydroxy-propyl}-3-(4-trifluoromethyl-phenyl)-1,4,6,7-tetrahydro-pyrazolo[4,3-c]pyridin-5-y]-ethanone], the IC50 was 110 nM. Compound CS(=O)(=O)N1CCc2c(c(-c3ccc(C(F)(F)F)cc3)nn2CC(O)CN2CCC(c3c(C(=O)O)sc4cc(F)ccc34)CC2)C1 (stereo not drawn) [Example 132, 6-Fluoro-3-(1-{2-hydroxy-3-[5-methanesulfonyl-3-(4-trifluoromethyl-phenyl)-4,5,6,7-tetrahydro-pyrazolo[4,3-c]pyridin-1-yl]-propyl}-piperidin-4-yl)-benzo[b]thiophene-2-carboxylic acid] has an IC50 of 90 nM. CS(=O)(=O)N1CCc2c(c(-c3ccc(C(F)(F)F)cc3)nn2CCCN2CCC(c3c[nH]c4ncccc34)CC2)C1 [Example 116, 5-Methanesulfonyl-1-{3-[4-(1H-pyrrolo[2,3-b]pyridin-3-yl)-piperidin-1-yl]-propyl}-3-(4-trifluoromethyl-phenyl)-4,5,6,7-tetrahydro-1H-pyrazolo[4,3-c]pyridine] was tested, and the IC50 was 250 nM. With CS(=O)(=O)N1CCc2c(c(-c3ccc(Br)cc3)nn2CC(O)CN2CCC(c3c[nH]c4c(Cl)cccc34)CC2)C1 (stereo not drawn) [Example 107, 1-[3-(4-Bromo-phenyl)-5-methanesulfonyl-4,5,6,7-tetrahydro-pyrazolo[4,3-c]pyridin-1-yl]-3-[4-(7-chloro-1H-indol-3-yl)-piperidin-1-yl]-propan-2-ol] the IC50 was 40 nM. With CC(=O)N1CCc2c(c(-c3ccc(C(F)(F)F)cc3)nn2CC(O)CN2CCC(c3c[nH]c4ncccc34)CC2)C1 (stereo not drawn) [Example 111, 1-[1-{2-Hydroxy-3-[4-(1H-pyrrolo[2,3-b]pyridin-3-yl)-piperidin-1-yl]-propyl}-3-(4-trifluoromethyl-phenyl)-1,4,6,7-tetrahydro-pyrazolo[4,3-c]pyridin-5-yl]-ethanone] the IC50 was 170 nM.
